Holding throughout (assay type): biochemical
One assay has as its target NEU2 (Homo sapiens, UniProt Q9Y3R4). Briefly: Inhibition assay, 4MU-NANA cleavage, NEU2. Conditions: read-out: IC50 NEU2; 4MU-NANA as the substrate; pH 5.5.
For the next assay, the target named is NEU1 (Homo sapiens, UniProt Q99519). Briefly: Inhibition assay, 4MU-NANA cleavage, NEU1. Conditions: read-out: IC50 NEU1; 4MU-NANA as the substrate; pH 4.5.
The target of a further assay is NEU3 (Homo sapiens, UniProt Q9UQ49). Nature of the assay: Inhibition assay, 4MU-NANA cleavage, NEU3. Particulars: read-out: IC50 NEU3; 4MU-NANA as the substrate; pH 4.5.
The next assay deals with NEU4 (Homo sapiens, UniProt Q8WWR8). Briefly: Inhibition assay, 4MU-NANA cleavage, NEU4. Conditions: read-out: IC50 NEU4; 4MU-NANA as the substrate; pH 4.5.

The chains behind the UniProt entries cited, without tags or fusion partners.
UniProt Q9Y3R4, whole entry: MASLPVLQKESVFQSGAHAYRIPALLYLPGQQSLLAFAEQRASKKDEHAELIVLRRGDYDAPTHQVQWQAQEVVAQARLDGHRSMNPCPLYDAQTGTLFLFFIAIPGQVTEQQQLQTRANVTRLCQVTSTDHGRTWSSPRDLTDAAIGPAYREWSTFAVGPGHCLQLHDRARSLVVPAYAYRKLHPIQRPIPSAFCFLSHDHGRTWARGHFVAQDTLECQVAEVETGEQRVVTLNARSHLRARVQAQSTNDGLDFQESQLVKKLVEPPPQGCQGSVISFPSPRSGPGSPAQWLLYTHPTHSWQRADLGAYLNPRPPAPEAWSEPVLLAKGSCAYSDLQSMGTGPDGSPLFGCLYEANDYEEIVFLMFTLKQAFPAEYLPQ
UniProt Q9UQ49, whole entry: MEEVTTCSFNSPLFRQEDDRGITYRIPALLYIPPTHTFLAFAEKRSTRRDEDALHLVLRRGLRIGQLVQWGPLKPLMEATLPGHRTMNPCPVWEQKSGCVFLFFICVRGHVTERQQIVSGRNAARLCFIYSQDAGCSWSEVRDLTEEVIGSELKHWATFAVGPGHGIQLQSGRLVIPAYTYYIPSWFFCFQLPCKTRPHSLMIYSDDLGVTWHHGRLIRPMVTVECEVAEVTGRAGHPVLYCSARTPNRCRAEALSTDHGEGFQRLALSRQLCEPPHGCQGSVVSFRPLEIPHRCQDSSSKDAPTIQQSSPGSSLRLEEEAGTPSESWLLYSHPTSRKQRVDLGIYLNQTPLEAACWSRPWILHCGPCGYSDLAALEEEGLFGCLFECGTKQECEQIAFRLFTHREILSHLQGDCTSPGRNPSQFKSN
UniProt Q8WWR8, whole entry: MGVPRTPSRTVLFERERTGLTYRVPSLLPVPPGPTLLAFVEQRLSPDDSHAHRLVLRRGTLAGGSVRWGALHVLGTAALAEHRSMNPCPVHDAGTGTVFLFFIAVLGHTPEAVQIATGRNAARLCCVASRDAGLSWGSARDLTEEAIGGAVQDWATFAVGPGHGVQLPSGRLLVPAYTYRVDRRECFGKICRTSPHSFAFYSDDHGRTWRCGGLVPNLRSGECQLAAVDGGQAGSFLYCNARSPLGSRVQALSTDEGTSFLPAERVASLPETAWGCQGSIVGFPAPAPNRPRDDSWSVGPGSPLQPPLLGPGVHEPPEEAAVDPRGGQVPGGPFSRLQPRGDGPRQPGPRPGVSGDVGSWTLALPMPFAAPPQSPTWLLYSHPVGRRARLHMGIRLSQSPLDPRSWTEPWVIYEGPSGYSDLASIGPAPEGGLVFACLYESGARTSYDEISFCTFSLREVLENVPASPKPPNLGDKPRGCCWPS

SMILES strings stand for the structures.

For `CC(=O)N[C@H]1[C@H]([C@H](O)[C@H](O)CNC(=O)c2ccc(-c3ccccc3)cc2)OC(C(=O)O)=C[C@@H]1O`, the IC50 at NEU2 stood at 90 µM.
For `[N-]=[N+]=NCC(=O)N[C@H]1[C@H]([C@H](O)[C@H](O)Cn2cc(-c3ccc(-c4ccccc4)cc3)nn2)OC(C(=O)O)=C[C@@H]1O`, the IC50 on NEU1 worked out at 88 µM; on NEU2, 9.2 µM; at NEU3, 0.49 µM; at NEU4, 0.83 µM.

A word on the IC50: it is the concentration that inhibits the measured activity by half.
